Experiments:
Putative nitroreductase [1] = biological target: T1, Putative nitroreductase (Staphylococcus saprophyticus subsp. saprophyticus (strain ATCC 15305 / DSM20229 / NCIMB 8711 / NCTC 7292 / S-41), UniProt Q4A0P1); experiment: Substrate activity at Staphylococcus saprophyticus nitroreductase expressed in Escherichia coli assessed as half life in the presence of NADPH at 111 uM by HPLC analysis (0 to 5 mins at 20% ACN, 25 to 35 min at 80% ACN, 40 to 45 min at 20% ACN)
Putative nitroreductase [2] = biological target: T1, Putative nitroreductase; experiment: Substrate activity at Staphylococcus saprophyticus nitroreductase expressed in Escherichia coli assessed as half life in the presence of NADPH at 111 uM by HPLC analysis (0 to 5 mins at 20 % ACN, 15 to 22 min at 80% ACN, 27-32 AT 20% ACN)
Putative nitroreductase [3] = biological target: T1, Putative nitroreductase; experiment: Substrate activity at Staphylococcus saprophyticus nitroreductase expressed in Escherichia coli assessed as retention time […] at 111 uM by HPLC analysis (0 to 5 mins at 20 % ACN, 15 to 22 min at 80% ACN, 27-32 AT 20% ACN)
Hep 3B2 [4] = experiment: Cytotoxicity against human Hep3B cells assessed as cell viability at 9 to 150 uM measured after 48 hrs by MTT assay relative to control; format: cell-based; settings: hep 3b2, 48 h
PC-3 [5] = experiment: Cytotoxicity against human PC3 cells assessed as cell viability at 9 to 150 uM measured after 48 hrs by MTT assay relative to control; format: cell-based; settings: pc-3, 48 h
HUVEC = experiment: Cytotoxicity against human HUVEC cells assessed as cell viability at 9 to 150 uM measured after 48 hrs by MTT assay relative to control; format: cell-based
Putative nitroreductase [6] = biological target: T1, Putative nitroreductase; experiment: Substrate activity at Staphylococcus saprophyticus nitroreductase expressed in Escherichia coli assessed as retention time in the presence of NADPH at 111 uM by HPLC analysis (0 to 5 mins at 20% ACN, 25 to 35 min at 80% ACN, 40 to 45 min at 20% ACN)
Putative nitroreductase [7] = biological target: T1, Putative nitroreductase; experiment: Substrate activity at Staphylococcus saprophyticus nitroreductase expressed in Escherichia coli assessed as retention time in the presence of NADPH at 100 uM by HPLC analysis (0 to 5 mins at 20% ACN, 25 to 35 min at 80% ACN, 40 to 45 min at 20% ACN)
Putative nitroreductase [8] = biological target: T1, Putative nitroreductase; experiment: Substrate activity at Staphylococcus saprophyticus nitroreductase expressed in Escherichia coli assessed as retention time […] at 100 uM by HPLC analysis (0 to 5 mins at 20 % ACN, 15 to 22 min at 80% ACN, 27-32 AT 20% ACN)
Putative nitroreductase [9] = biological target: T1, Putative nitroreductase; experiment: Substrate activity at Staphylococcus saprophyticus nitroreductase expressed in Escherichia coli assessed as half life […] at 100 uM by HPLC analysis (0 to 5 mins at 20% ACN, 25 to 35 min at 80% ACN, 40 to 45 min at 20% ACN)
PC-3 [10] = experiment: Cytotoxicity against human PC3 cells assessed as reduction in cell viability measured after 48 hrs in presence of Staphylococcus saprophyticus nitroreductase and NADH by SRB assay; format: cell-based
Putative nitroreductase [11] = biological target: T1, Putative nitroreductase; experiment: Substrate activity at Staphylococcus saprophyticus nitroreductase expressed in Escherichia coli assessed as half life […] at 100 uM by HPLC analysis (0 to 5 mins at 20 % ACN, 15 to 22 min at 80% ACN, 27-32 AT 20% ACN)
PC-3 [12] = experiment: Cytotoxicity in human PC3 cells assessed as reduction in cell viability at 180 nM measured after 48 hrs by SRB assay; format: cell-based; settings: pc-3, 48 h, 0.18 µM
Hep 3B2 [13] = experiment: Cytotoxicity against human Hep3B cells assessed as reduction in cell viability measured after 48 hrs by MTT assay; format: cell-based

By UniProt entry, the sequences of proteins in these tests, tags left out. Residues count along the entry.
UniProt Q4A0P1, 1-208: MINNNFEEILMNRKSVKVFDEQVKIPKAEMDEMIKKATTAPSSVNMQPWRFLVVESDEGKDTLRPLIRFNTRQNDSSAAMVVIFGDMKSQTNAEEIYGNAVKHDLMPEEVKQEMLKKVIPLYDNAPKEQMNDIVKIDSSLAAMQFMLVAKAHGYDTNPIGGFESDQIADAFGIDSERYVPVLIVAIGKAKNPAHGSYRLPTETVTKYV

Cc1c([N+](=O)[O-])cc(C(=O)Nc2ccc([N+](=O)[O-])cc2[N+](=O)[O-])cc1[N+](=O)[O-]
t1/2 (Putative nitroreductase [1]): < 10.8 min
t1/2 (Putative nitroreductase [2]): < 13.8 min
Retention time (Putative nitroreductase [3]): 18.1 min
Activity (Hep 3B2 [4]): 51 to 80%
Activity (PC-3 [5]): > 80%
Activity (HUVEC): > 80%
Retention time (Putative nitroreductase [6]): 24.1 min

Cc1c([N+](=O)[O-])cc(C(=O)Nc2ccc([N+](=O)[O-])cc2)cc1[N+](=O)[O-]
Retention time (Putative nitroreductase [7]): 23.9 min
Retention time (Putative nitroreductase [8]): 18 min
Activity (Hep 3B2 [4]): > 80%
t1/2 (Putative nitroreductase [9]): < 15.6 min
Activity (PC-3 [5]): > 80%
IC50 (PC-3 [10]): 17.1 µM
t1/2 (Putative nitroreductase [11]): < 22.8 min
Activity (HUVEC): > 80%
Activity (PC-3 [12]): Non-Toxic

O=C(Nc1ccc([N+](=O)[O-])cc1[N+](=O)[O-])c1cc([N+](=O)[O-])cc([N+](=O)[O-])c1
t1/2 (Putative nitroreductase [2]): < 22.2 min
Retention time (Putative nitroreductase [3]): 14.5 min
IC50 (Hep 3B2 [13]): 51.2 µM
Activity (Hep 3B2 [4]): < 50%
Activity (PC-3 [5]): > 80%
Activity (HUVEC): 51 to 80%

CN(C)c1c([N+](=O)[O-])cc(C(=O)Nc2ccc([N+](=O)[O-])cc2[N+](=O)[O-])cc1[N+](=O)[O-]
Retention time (Putative nitroreductase [7]): 24.9 min
IC50 (Hep 3B2 [13]): 43.7 µM
Retention time (Putative nitroreductase [8]): 18.5 min
Activity (Hep 3B2 [4]): < 50%
t1/2 (Putative nitroreductase [9]): < 6 min
Activity (PC-3 [5]): > 80%
t1/2 (Putative nitroreductase [11]): < 25.2 min
Activity (HUVEC): > 80%

CN(C)c1c([N+](=O)[O-])cc(C(=O)Nc2ccc([N+](=O)[O-])cc2)cc1[N+](=O)[O-]
Retention time (Putative nitroreductase [8]): 18.4 min
Activity (Hep 3B2 [4]): > 80%
Activity (PC-3 [5]): > 80%
IC50 (PC-3 [10]): 29.1 µM
t1/2 (Putative nitroreductase [11]): < 18 min
Activity (HUVEC): > 80%
Activity (PC-3 [12]): Non-Toxic
